Laboratory results as given in US20020187514A1, “Identification of molecular targets useful in treating substance abuse and addiction” (priority 1999, published 2002).

By UniProt entry, the sequences of proteins in these tests, tags left out. Where a name states a change or a piece, a line headed by the entry shows the natural chain unless it says otherwise.
UniProt P41144: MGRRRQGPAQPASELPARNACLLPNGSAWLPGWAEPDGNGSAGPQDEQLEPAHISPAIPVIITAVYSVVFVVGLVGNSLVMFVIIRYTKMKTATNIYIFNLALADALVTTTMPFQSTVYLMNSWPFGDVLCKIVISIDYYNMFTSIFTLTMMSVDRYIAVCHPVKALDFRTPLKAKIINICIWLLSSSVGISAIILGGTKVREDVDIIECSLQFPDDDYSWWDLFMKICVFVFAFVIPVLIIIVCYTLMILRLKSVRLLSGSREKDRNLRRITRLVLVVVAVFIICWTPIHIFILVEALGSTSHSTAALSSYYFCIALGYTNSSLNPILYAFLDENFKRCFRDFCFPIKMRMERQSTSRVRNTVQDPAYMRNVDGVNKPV

Molecular target: Opiate, Kappa 1 (UniProt P41144)
Test: Opiate, Kappa 1; [3H]U-69593
Type: binding
Conditions: read-out: Ref Kj; reference compound, QA/QC

**Q.** With `CN(C(=O)Cc1ccccc1)[C@H]1CC[C@@]2(CCCO2)C[C@@H]1N1CCCC1` as the compound, how does the Ki read?
**A.** 411 pM
